Paper PMC5566547

Molecular target: T1, Thymine DNA glycosylase (TDG), full-length wild-type human, N-terminal hexahistidine tag (human), Q13569
T1 chain: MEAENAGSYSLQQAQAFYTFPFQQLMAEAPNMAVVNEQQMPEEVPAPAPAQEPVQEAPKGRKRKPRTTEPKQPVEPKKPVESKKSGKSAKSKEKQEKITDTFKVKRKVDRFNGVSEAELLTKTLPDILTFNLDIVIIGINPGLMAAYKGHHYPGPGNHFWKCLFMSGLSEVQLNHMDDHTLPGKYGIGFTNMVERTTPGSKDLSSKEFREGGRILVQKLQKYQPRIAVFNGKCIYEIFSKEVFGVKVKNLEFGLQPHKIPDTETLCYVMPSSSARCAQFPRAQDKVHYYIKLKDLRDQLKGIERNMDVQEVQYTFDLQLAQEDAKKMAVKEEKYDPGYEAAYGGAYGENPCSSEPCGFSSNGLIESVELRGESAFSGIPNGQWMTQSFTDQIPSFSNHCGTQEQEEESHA
Test: SEC; Superdex 200 10/300 GL; separate injections of NEIL1 E3Q or TDG alone (5nmoles in 0.5 ml); SEC buffer 70 mM MOPS pH7.5, 5% glycerol, 1 mM EDTA, 1 mM DTT, 100 mM KCl; column calibrated with mass standards
Details: remark: other sources report otherwise

- stoichiometry N: 2
B1: Thymine DNA glycosylase (TDG), full-length wild-type human, N-terminal hexahistidine tag, Q13569 1-410 (enzyme)
chain: MEAENAGSYSLQQAQAFYTFPFQQLMAEAPNMAVVNEQQMPEEVPAPAPAQEPVQEAPKGRKRKPRTTEPKQPVEPKKPVESKKSGKSAKSKEKQEKITDTFKVKRKVDRFNGVSEAELLTKTLPDILTFNLDIVIIGINPGLMAAYKGHHYPGPGNHFWKCLFMSGLSEVQLNHMDDHTLPGKYGIGFTNMVERTTPGSKDLSSKEFREGGRILVQKLQKYQPRIAVFNGKCIYEIFSKEVFGVKVKNLEFGLQPHKIPDTETLCYVMPSSSARCAQFPRAQDKVHYYIKLKDLRDQLKGIERNMDVQEVQYTFDLQLAQEDAKKMAVKEEKYDPGYEAAYGGAYGENPCSSEPCGFSSNGLIESVELRGESAFSGIPNGQWMTQSFTDQIPSFSNHCGTQEQEEESHA
